# Values quoted from earlier work in patent US11022605B2 (priority 2016, dated 2021).
# Tested on: lung compartment
# Details: CCA; cited from earlier work
substance,measurement,value
naphthaquinone,effect of reactive metabolite generated in the liver,gluthathione depletion and loss of viability in the lung compartment
